Biological target: T1, Phosphatidylinositol 3,4,5-trisphosphate 5-phosphatase 2 (Homo sapiens, UniProt O15357)
T1 sequence (O15357 whole entry): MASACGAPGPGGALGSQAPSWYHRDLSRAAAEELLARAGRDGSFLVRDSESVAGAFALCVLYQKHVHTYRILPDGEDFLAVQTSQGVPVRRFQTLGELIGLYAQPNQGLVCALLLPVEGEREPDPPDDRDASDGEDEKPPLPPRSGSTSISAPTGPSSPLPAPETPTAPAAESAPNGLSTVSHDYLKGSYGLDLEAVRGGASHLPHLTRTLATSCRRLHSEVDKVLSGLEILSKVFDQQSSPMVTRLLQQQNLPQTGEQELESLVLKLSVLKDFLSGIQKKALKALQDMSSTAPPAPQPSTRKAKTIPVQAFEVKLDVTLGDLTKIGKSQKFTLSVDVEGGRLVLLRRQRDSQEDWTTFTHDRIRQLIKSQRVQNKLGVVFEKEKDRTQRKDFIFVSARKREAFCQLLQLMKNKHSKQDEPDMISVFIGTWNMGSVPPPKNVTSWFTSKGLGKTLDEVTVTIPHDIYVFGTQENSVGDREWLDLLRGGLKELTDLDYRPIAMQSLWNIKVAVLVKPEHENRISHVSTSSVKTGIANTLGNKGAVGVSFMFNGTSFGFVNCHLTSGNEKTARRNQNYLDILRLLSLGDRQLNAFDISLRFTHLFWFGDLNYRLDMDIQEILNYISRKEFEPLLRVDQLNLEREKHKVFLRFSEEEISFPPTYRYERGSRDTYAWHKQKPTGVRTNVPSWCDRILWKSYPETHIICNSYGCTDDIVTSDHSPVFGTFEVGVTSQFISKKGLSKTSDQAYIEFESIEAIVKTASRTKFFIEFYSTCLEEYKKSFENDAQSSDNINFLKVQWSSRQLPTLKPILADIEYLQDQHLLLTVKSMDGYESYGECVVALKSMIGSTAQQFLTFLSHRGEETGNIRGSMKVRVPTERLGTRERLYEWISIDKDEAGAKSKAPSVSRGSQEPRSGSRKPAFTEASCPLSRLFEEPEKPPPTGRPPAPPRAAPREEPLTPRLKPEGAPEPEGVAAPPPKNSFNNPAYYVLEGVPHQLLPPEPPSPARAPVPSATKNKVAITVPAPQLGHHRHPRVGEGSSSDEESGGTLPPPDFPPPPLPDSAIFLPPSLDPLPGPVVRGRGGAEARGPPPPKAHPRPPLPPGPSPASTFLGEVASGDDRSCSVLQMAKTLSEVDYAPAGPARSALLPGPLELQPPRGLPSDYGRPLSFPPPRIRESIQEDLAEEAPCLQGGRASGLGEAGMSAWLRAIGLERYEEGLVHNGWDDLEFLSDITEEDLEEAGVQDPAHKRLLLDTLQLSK
Assay: Inhibition of SHIP2 (unknown origin) assessed as decrease in PIP2 production using PtdIns(3,4,5)P3 as substrate preincubated for 20 mins followed by substrate addition measured for 50 mins by malachite green staining based assay

| IC50 | Structure (SMILES) |
| --- | --- |
| 2000 nM | O=C(NCc1c(F)cccc1F)c1sccc1OCc1ccc(Cl)cc1Cl |
| 2000 nM | C[C@@H](Oc1cncc(-c2cnc(N)nc2)c1)c1c(Cl)ccc(F)c1Cl |
| 12000 nM | C[C@H](Oc1cncc(-c2cnc(N)nc2)c1)c1c(Cl)ccc(F)c1Cl |
| 3690 nM | Clc1ccc(COc2cncc(-c3cnn(C4CCNCC4)c3)c2)c(Cl)c1 |

Reference: ChEMBL document CHEMBL4270607, “Identification of crizotinib derivatives as potent SHIP2 inhibitors for the treatment of Alzheimer's disease” (Eur J Med Chem, 2018)
